The subject of assay [1] is Bacillus cereus ATCC 10702. In words: microbe, parasite or virus in culture. The settings on record: ATCC10702, 18 h.
For assay [2], the system named is Micrococcus flavus FDA 16. In words: microbe, parasite or virus in culture. The settings on record: FDA16, 18 h.

2 molecules from patent US4486419A, “5,2',3',4',4",6"-Hexadeoxykanamycin and its 1-N-acylated derivative” (Zaidan Hojin Biseibutsu Kagaku Kenkyu Kai, priority 1982, dated 1984) can be followed below.

≈ marks a conversion by molar mass, not a printed value.

On to `C[C@@H]1C[C@H](N)[C@@H](O)[C@@H](O[C@@H]2C[C@H](O[C@@H]3CCC[C@@H](CN)O3)[C@@H](N)C[C@H]2NC(=O)[C@@H](O)CCN)O1` [Hexadeoxyamikacin, 1-N-[(S)-4-amino-2-hydroxybutyryl]-5,2',3',4',4",6"-hexadeoxykanamycin], for which the MIC in assay [1] and in assay [2] was 6.25 µg/mL (≈ 12.8 µM) throughout.

In the case of `C[C@@H]1C[C@H](N)[C@@H](O)[C@@H](O[C@@H]2C[C@H](O[C@@H]3CCC[C@@H](CN)O3)[C@@H](N)C[C@H]2N)O1` [Hexadeoxykanamycin, 5,2',3',4',4",6"-hexadeoxykanamycin], the results for the MIC in assay [1] and in assay [2] were 6.25 µg/mL (≈ 16.1 µM) and 12.5 µg/mL (≈ 32.2 µM), respectively.
